Test [1] concerns the target T1, recombinant human A2B adenosine receptors (Homo sapiens, UniProt P29275).
T1 sequence (P29275 1-332): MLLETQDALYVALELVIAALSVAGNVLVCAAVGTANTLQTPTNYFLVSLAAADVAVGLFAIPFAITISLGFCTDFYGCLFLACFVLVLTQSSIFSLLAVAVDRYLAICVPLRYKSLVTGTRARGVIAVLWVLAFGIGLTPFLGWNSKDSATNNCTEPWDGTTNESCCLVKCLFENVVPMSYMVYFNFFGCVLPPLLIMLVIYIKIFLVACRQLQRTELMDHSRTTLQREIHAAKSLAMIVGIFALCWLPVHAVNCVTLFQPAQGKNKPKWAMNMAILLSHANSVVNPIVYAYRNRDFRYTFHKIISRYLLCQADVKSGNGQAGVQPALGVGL
The experiment in a line: Calcium mobilization in HEK-293 cells transfected with recombinant human A2B adenosine receptors (FURA). The note with it: 100 μM antagonist. The format is cell-based. Also noted: expressed in transfected cells; host or cells: cells expressing the recombinant receptor. The procedure:
The activation of the phospholipase C pathway leads to intracellular calcium mobilization.
Calcium mobilization was measured in cells preloaded with FURA.
In general terms: Calcium assays in cells follow changes in intracellular calcium, usually with a dye or a luminescent sensor.

Test [2] deals with T1, recombinant human A2B adenosine receptors. The experiment in a line: IP3 generation in HEK 293 cells transfected with recombinant human A2B adenosine receptors. Particulars: 250 μM antagonist.
Test [3] shares this target. The experiment in a line: Competition for [3H]DPX binding to rhA2B adenosine receptors (Example 2). Also noted: expressed in transfected cells; host or cells: cells expressing the recombinant receptor. Particulars: FIGS. 2A and 2B.

SMILES strings stand for the structures.

We go through one compound from US6117878A, “8-phenyl- or 8-cycloalkyl xanthine antagonists of A2B human adenosine receptors” (priority 1998, dated 2000).

As for `Cn1c(=O)c2[nH]cnc2n(C)c1=O` [theophylline], in test [1], the “Block of Ca2+ response induced by 1 μM NECA” value is on record as “totally blocks”. Also, in test [2], the “Block of increase in IP3 produced by 10 μM NECA” value is “able to block the increase in IP3”. Besides, the “Affinity for human A2B versus human A3 adenosine receptors” value in test [3] is “higher affinities for human A2B adenosine receptors than for human A3 adenosine receptors”.
